Assay results from US8324197B2, “Transplatinum complexes with N2O2 donor sets as cytotoxic and antitumor agents” (Virginia Commonwealth University, priority 2005, dated 2012).

Key:
[1] = Aqueous solubility of TPA-acetate complexes (sequential addition of water); details: ambient temperature
[2] = Hydrolysis (first aquation step) followed by HPLC, Example 5; assay type: physicochemical; details: nanopure water
Method: For hydrolysis studies, […] complex was dissolved in 1 mL of nanopure water. The pH values of the samples were controlled in regular intervals and readjusted if necessary by addition of HNO3 (1 M, 0.1 M, 0.01 M) or NaOH (1 M, 0.1 M, 0.01 M). Aliquots of 20 μL were taken from the bulk solution for HPLC analysis. The overall scheme may be described as follows:
The aquated species were identified by comparison with the hydrolysis profile produced by the corresponding (labile) nitrate compounds. The rate constants for the first aquation step k1 are given in Table 2 and compared with other platinum complexes containing one or two labile ligands. […] In particular, these rates are 2-3 orders of magnitude lower than that of transplatin itself. The rate of aquation tends toward that of carboplatin which in phosphate buffer at 310 K gave a hydrolysis rate of 7.2×10^−7 s^−1 (but in aqueous solution gives a barely measurable rate constant of <5×10^−9 s^−1, which is modulated by the presence of buffer, nucleophile or acid). ^31,32No evidence for formation of Pt(TV) species during hydrolysis is detected under these conditions.^33

Substance	Solubility [1]	k1, rate constant for the first aquation step [2]
trans-[diacetato(ammine)(quinoline)platinum(II)] [trans-[Pt(OAc)2(NH3)(quin)]]	1600 µg/mL	(3.7 ± 0.1) × 10^−7 s^−1
trans-[diacetatobis(pyridine)platinum(II)] [trans-[Pt(OAc)2(py)2]]		(3.2 ± 0.3) × 10^−7 s^−1
